According to ChEMBL document CHEMBL1938241, “Design, synthesis, and activity evaluation of broad-spectrum small-molecule inhibitors of anti-apoptotic Bcl-2 family proteins: characteristics of broad-spectrum protein binding and its effects on anti-tumor activity” (Bioorg Med Chem Lett, 2012):
pKi: −log10 of the molar value.

Sequences of proteins named here, by UniProt entry; tags and fusion partners are left off.
UniProt Q07820, whole entry: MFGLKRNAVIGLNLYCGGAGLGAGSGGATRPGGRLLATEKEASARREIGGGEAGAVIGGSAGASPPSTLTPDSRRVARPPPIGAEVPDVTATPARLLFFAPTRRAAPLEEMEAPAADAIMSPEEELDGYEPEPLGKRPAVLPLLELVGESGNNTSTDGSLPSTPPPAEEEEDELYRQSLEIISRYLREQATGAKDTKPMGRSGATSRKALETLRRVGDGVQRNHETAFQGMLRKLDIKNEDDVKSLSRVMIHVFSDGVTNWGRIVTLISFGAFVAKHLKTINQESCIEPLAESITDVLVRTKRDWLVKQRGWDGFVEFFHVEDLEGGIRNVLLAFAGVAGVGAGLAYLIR

Target: Induced myeloid leukemia cell differentiation protein Mcl-1 (Homo sapiens, UniProt Q07820)
Assay: Binding affinity to Mcl-1 by competitive fluorescence polarization assay

For `CN(C)CC[C@H](CSc1ccccc1)Nc1ccc(S(=O)(=O)NC(=O)c2ccc(N3CCN(Cc4ccccc4-c4ccc(Cl)cc4)CC3)cc2)cc1[N+](=O)[O-]` [ABT 737], the pKi was < 4.00.
